{"source": "patent EP3820879B1", "about": "“PHOSPHORUS-CONTAINING PRODRUGS OF GEMCITABINE” (Changchun Changcheng Pharmaceutical Technology Co., LTD, priority 2018, dated 2020)", "key": {"[1]": {"test": "Mouse pharmacokinetic study: plasma exposure of prodrug and dFdC", "assay_type": "in vivo, C57BL/6 mice", "settings": "Figure 1", "procedure": "(§1) C57BL/6 mice used in this experiment were purchased from Beijing Vital River Laboratory Animal Technology Co., Ltd., and male mice with a body weight in the range of 16~19 g were tested for administration. The animals were housed with appropriate air conditions (temperature: 20~25 °C; humidity: 40%~70%; light/dark cycle: 12 hours), and were provided with the food and water ad lib.\n(§2) The solution media for IV administration were DMSO: 30% solutol HS-15:saline = 10:10:80 (v/v/v). Test substances were dissolved in the media to obtain a clear solution, and filtered through PTFE to get a colorless clear solution for IV administration.\nThe solution media for oral administration were DMSO: 30% solutol HS-15:saline = 10:10:80 (v/v/v). […]\n(§3) The pharmacokinetic (PK) profile of liver-targeted gemcitabine (dFdC) prodrug according to Formula I (i.e., Compound 4) was evaluated in male […] mice following intravenous administration (i.v.) at an equivalent dose to 15 mg/kg of Gemcitabine or following oral administration (PO or i.g.) at a dose of 80 mg/kg.\nBlood samples of designated animals (n = 3/time point/compound) were taken at 0.083, 0.25, 0.5, 1, 2, 4, and 8 hours following i.v. administration, and at 0.25, 0.5, 1, 2, 4, 8 and 24 hours following PO administration, respectively. […] Pharmacokinetic parameters were calculated using WinNonlin software (Pharsight Corp., Mountain View, CA)."}, "[2]": {"test": "Mouse pharmacokinetic study: liver concentrations of dFdC and dFdU at 2h", "assay_type": "in vivo, C57BL/6 mice", "settings": "Fig. 2", "procedure": "as §1, §2\nThe solution media for oral administration were DMSO: 30% solutol HS-15:saline = 10:10:80 (v/v/v). Test substances were dissolved in the media to obtain a clear solution.\nThe animals were randomly divided into groups. All animals were fasted overnight (12-15 hours) before administration (but provided with water ad lib) and provided with foods 4 hours after the administration. As to IV administration of gemcitabine, the mice were administered with the formulations by vena caudalis injection (at dose of 15 mg/kg).\nas §3\nBlood samples of designated animals (n = 3/time point/compound) were taken at 0.083, 0.25, 0.5, 1, 2, 4, and 8 hours following i.v. administration, and at 0.25, 0.5, 1, 2, 4, 8 and 24 hours following PO administration, respectively. Systemic blood samples were collected into EDTA-K2-treated tubes containing tetrahydrouridine (THU, 0.5 mM) to inhibit further metabolism of gemcitabine (dFdC) to dFdU. In addition, at 2 hours following either i.v. or PO administration, 3 animals were sacrificed for collection of liver tissues. Plasma was isolated by centrifugation and frozen prior to analysis. Liver tissue was processed by homogenization in X5 volume of 20% methanol, and the homogenate was subject to centrifugation for collection of the supernatant. Both plasma and tissue concentrations of prodrugs, parent drug (i.e., gemcitabine, aka dFdC) and dFdU (a major metabolite of dFdC) were determined by LC/MS/MS analysis (Instrument: Agilent 6470. MS: Positive Ion, AJS ESI, MRM Detection; HPLC condition: Column: Agilent ZORBAX XDB-C18, 5 µm, 2.1×50mm (Column No.: 50-241), Flow rate: 0.30 mL·min^-1). Pharmacokinetic parameters were calculated using WinNonlin software (Pharsight Corp., Mountain View, CA)."}, "[3]": {"settings": "i.v., Gemcitabine 15 mg/kg or Compound 4 at equivalent dose"}}}
{"compound": "O=c1nc(N[P@@]2(=O)OCC[C@@H](c3cccc(Cl)c3)O2)ccn1[C@@H]1OC(CO)[C@@H](O)C1(F)F", "note": "(stereo partly drawn)", "values": [{"measurement": "exposure of the prodrug in the systemic circulation", "setting": "[1]; PO 80 mg/kg", "result": "significant exposure of the prodrug"}, {"measurement": "exposure of the prodrug in the systemic circulation", "setting": "[1]; i.v., equivalent dose to 15 mg/kg of gemcitabine", "result": "significant exposure of the prodrug"}, {"measurement": "dFdC levels in the liver", "setting": "[2]; PO 80 mg/kg", "result": "significant levels of dFdC"}, {"measurement": "dFdU levels in the liver", "setting": "[2]; PO 80 mg/kg", "result": "much less than that in Gemcitabine i.v. administration group"}, {"measurement": "dFdC levels in the liver", "setting": "[2]; [3]", "result": "significant levels of dFdC"}, {"measurement": "dFdU levels in the liver", "setting": "[2]; [3]", "result": "much less than that in Gemcitabine i.v. administration group"}]}
